Results taken from PubChem BioAssay AID602270 (The Scripps Research Institute Molecular Screening Center, 2012).
Only a part is listed here, and it is no random draw. Active and inactive are the calls of the source. No stated cut-off is given here; in the data, active means activation above about 4%; inactive means the rest.

Tested on: Methionine sulfoxide reductase A (Bos taurus)
Experiment: methionine sulfoxide reductase A activation – biochemical, absorbance, bovine, HTS, confirmation (AID 602270);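 further: enzyme coupled to thioredoxin and thioredoxin reductase with NADPH; 0% = vehicle wells and 100% = reference activator wells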
Details: purified bovine MsrA, absorbance read-out; at 10.6 µM; active compounds read high

With `O=[N+]([O-])c1cc([N+](=O)[O-])c(-c2cnn(-c3ccccc3)c2)c([N+](=O)[O-])c1` the activation was inactive: 2.85%.
